The entries are a selection whose mix differs from that of the whole data set. Activity calls are given as the source filed them. Cut-off read from the data, not from the text of the source, unless noted: active = activation above about 22%; inactive = the rest.
Columns and labels:
[1] = target: Peroxisome proliferator-activated receptor gamma (Homo sapiens) (UniProt P37231); experiment: retested PPARg-SRC-2 recruitment enhancers – biochemical, HTS, confirmation (AID 1297); details: biochemical SRC-2 recruitment by PPARgamma; at 8 µM; stronger effect = higher value;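 note: 0% = vehicle alone and 100% = reference agonist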
[2] = target: Peroxisome proliferator-activated receptor gamma (Homo sapiens) (UniProt P37231); experiment: retest of SRC-1 recruitment enhancers for PPARgamma – biochemical, confirmation (AID 1300; in the data active = activation above about 20%;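 note: 0% = vehicle wells and 100% = reference agonist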); details: PPARgamma–SRC-1 coactivator recruitment biochemical assay; at 8 µM; stronger effect = higher value
[3] = target: Peroxisome proliferator-activated receptor gamma (Homo sapiens) + Nuclear receptor coactivator 3 (Homo sapiens) (UniProt P37231+Q9Y6Q9); experiment: agonists promoting SRC-3 binding to PPARgamma – biochemical, confirmation (AID 1301; in the data active = activation above about 24%;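 note: 0% = vehicle wells and 100% = reference agonist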); details: biochemical PPARgamma-SRC-3 coactivator recruitment, agonist mode; at 8 µM; stronger effect = higher value

The chains behind the UniProt entries cited, without tags or fusion partners. Where a name states a change or a piece, a line headed by the entry shows the natural chain unless it says otherwise.
UniProt P37231: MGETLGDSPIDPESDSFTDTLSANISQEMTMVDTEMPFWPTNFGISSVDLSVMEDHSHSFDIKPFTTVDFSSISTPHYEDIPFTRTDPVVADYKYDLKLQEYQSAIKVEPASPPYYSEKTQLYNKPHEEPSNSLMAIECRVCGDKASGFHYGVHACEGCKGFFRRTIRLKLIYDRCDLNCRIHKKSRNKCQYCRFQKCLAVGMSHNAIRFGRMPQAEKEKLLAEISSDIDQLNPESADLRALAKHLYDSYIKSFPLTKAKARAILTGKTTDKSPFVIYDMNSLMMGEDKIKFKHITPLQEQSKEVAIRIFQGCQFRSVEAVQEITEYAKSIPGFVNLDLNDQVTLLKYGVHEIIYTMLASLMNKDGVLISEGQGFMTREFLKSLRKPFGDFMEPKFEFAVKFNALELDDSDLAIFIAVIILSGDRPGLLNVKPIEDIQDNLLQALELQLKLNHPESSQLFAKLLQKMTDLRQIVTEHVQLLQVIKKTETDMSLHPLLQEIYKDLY
UniProt Q9Y6Q9, whole entry, looked up: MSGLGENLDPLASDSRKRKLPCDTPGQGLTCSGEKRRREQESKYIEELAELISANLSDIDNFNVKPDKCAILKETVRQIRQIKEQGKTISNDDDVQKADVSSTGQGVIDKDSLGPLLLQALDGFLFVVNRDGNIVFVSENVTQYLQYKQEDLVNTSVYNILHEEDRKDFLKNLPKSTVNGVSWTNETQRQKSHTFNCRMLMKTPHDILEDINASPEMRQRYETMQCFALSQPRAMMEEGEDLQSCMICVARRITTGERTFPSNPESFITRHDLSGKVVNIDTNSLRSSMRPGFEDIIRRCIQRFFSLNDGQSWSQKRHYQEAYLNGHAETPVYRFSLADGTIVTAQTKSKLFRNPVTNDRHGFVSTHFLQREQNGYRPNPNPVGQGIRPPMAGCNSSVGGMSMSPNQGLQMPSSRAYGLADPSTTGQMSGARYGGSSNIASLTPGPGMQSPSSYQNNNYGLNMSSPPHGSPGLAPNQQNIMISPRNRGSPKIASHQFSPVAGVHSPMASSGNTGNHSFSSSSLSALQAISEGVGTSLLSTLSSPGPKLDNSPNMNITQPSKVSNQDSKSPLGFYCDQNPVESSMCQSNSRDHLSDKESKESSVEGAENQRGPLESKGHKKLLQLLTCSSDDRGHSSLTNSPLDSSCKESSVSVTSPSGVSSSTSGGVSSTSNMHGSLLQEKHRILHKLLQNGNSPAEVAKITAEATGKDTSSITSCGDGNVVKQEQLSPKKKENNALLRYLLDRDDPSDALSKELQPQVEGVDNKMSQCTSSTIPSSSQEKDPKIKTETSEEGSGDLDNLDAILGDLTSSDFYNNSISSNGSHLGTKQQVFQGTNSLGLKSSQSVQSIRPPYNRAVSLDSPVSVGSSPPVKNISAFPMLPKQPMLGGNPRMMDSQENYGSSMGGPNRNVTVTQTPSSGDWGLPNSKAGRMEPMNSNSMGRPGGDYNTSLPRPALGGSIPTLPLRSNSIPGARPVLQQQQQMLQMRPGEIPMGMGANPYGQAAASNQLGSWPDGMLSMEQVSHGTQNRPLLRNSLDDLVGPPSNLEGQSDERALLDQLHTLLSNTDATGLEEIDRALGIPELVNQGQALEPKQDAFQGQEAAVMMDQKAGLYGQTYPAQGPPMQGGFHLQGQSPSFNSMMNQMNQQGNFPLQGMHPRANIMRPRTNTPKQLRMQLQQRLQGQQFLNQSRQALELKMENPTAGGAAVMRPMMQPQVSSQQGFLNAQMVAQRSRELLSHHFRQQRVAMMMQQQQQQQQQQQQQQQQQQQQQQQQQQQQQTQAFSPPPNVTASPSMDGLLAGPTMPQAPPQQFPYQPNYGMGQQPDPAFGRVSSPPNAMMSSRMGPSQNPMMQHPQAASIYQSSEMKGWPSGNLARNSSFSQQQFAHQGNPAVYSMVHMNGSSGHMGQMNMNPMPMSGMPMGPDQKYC

Measured: activation

CN(C)c1ccc2nc3ccc(=[N+](C)C)cc-3sc2c1
active: [1] 233% | [2] 172% | [3] 167%

Reference: PubChem BioAssay
